Structures can show the parent of a compound that is named as a salt.

The experiment concerns the target T1, fibroblast activation protein (FAP; rhFAP, SLIN-tagged hFAP) (Homo sapiens, UniProt Q12884).
T1 sequence (Q12884 35-760): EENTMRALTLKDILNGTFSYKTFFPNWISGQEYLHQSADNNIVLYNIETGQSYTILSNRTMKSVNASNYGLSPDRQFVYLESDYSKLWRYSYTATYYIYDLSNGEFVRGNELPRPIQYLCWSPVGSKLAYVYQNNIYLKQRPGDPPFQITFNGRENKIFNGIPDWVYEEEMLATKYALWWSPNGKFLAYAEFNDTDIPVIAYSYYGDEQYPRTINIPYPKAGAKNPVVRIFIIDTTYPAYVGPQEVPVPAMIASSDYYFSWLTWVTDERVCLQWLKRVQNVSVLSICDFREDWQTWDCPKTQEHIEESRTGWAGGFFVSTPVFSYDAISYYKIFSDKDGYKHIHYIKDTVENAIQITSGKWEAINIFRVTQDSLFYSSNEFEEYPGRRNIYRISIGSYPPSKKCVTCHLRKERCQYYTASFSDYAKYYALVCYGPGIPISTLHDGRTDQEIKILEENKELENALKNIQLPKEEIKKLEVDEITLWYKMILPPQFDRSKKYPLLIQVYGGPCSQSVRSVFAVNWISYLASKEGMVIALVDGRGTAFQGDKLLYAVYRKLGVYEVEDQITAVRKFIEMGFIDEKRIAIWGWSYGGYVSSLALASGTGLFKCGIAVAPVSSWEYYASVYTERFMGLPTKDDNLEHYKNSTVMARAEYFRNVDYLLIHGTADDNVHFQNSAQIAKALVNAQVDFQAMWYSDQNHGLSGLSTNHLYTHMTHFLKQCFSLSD
Type of experiment: binding.
In the case of `Cc1cc2ncc(C(=O)NCC(C)(C)NCC(=O)N3CCC[C@H]3C#N)cn2n1` [Anagliptin], the affinity, expressed as Ki, was 0.38 µM.
For `CC/C=C(\C(=O)N[C@@H]1C(=O)N2C(C(=O)OCOC(=O)C(C)(C)C)=C(COC(N)=O)CS[C@H]12)c1csc(N)n1` [Cefcapene pivoxil (hydrochloride)] the value was 0.12 µM; for `CO/N=C(\C(=O)N[C@@H]1C(=O)N2C(C(=O)OCOC(=O)C(C)(C)C)=C(/C=C\c3scnc3C)CS[C@H]12)c1csc(N)n1` [Cefditoren pivoxil], 0.15 µM.
Under `CO/N=C(\C(=O)N[C@@H]1C(=O)N2C(C(=O)OCOC(=O)C(C)(C)C)=C(C)CS[C@H]12)c1csc(N)n1` [Cefetamet pivoxil (hydrochloride)] stands 0.11 µM.

(Values after publication doi:10.1101/2024.06.25.600598v1 (biorxiv, 2024).)
